Test results: ChEMBL document CHEMBL5543160, “Psychoplastogenic DYRK1A Inhibitors with Therapeutic Effects Relevant to Alzheimer's Disease” (J Med Chem, 2024)
Calls of active or inactive are those of the source. The calls are words filed in the database; no cut-off is given here.

Molecular target: Dual specificity tyrosine-phosphorylation-regulated kinase 1A (Homo sapiens, UniProt Q13627)
Experiment: Inhibition of DYRK1A (unknown origin) at 10 uM by DiscoverX KINOMEscan assay

Question: How did the inhibition turn out when `COc1ccc2c3ccnc(C)c3n(CCN(C)C)c2c1.O=C(O)/C=C/C(=O)O` was run?
Answer: Its inhibition is “Active”.
